# AlphaSeq binding of Ab-14 heavy chain variants to a spike HR2 peptide

Target peptide (SARS-CoV-2 spike, HR2 region): PDVDLGDISGINAS

Each scFv is VH, a (GGGGS)3 linker, VL, as in the parent Ab-14, and differs from it in the CDRs of the heavy chain only.
VH: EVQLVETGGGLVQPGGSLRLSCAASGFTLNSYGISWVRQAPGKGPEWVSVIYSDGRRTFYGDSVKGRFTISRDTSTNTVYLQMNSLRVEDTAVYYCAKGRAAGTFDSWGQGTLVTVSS
VL: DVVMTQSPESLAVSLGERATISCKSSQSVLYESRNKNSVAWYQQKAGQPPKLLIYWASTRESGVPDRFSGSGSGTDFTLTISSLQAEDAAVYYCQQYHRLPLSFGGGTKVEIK

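The starting antibody came from a phage panning campaign against this peptide. In library AAYL49, one, two or three CDR residues were substituted; doubles and triples were drawn at random. AlphaSeq pools MATa yeast showing the antibodies with MATalpha yeast showing the peptide. Pairs that bind mate more often; barcode pairs of the diploids are counted by sequencing. A regression on co-assayed BCL2-family reference pairs converts the normalised counts of each replicate to an apparent Kd. The assay was run in three technical replicates.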

Each variant is given by its three heavy chain CDRs, as the data file delimits them; those of the parent are GFTLNSYGIS, VIYSDGRRTFYGDSVK, GRAAGTFDS.
Each Kd is an estimate from the mating assay, the geometric mean of the replicates in which the pair was seen; lower is stronger.
"nd" means that the variant was in the library but no mating with the target was seen in any replicate; the authors take this as a sign of poor binding, and no number exists.

| Kd (apparent) | seen in | CDR-H1 | CDR-H2 | CDR-H3 |
|---|---|---|---|---|
| nd | 0 of 3 | GFTLNSYGIS | VIYFDGRRTQYGDSVK | GRFAGTFDS |
| 1.6 µM | 1 of 3 | GFMLNSYGIS | TIYSDGRRTFYGDSVK | GRATGTFDS |
| 6.6 nM | 3 of 3 | GFTLNSYGIS | VIYSDGRRTFYQDSVK | FRAAGTFDS |
| 33 µM | 1 of 3 | GFDLNSYRIS | VIYSDGRRTFYGDSVK | RRAAGTFDS |
| nd | 0 of 3 | GFTLNSYGIS | VIYSDGRRTFYGDSVF | NRACGTFDS |
| nd | 0 of 3 | GFWLNSYGSS | LIYSDGRRTFYGDSVK | GRAAGTFDS |
| nd | 0 of 3 | GFTLNSYGIS | VIYSDGRRTFYGDYVK | GRAAGWFIS |
| nd | 0 of 3 | GNTLNSYGIS | VIYSDGFRTFYGDSVK | GRAACTFDS |
| 13 µM | 2 of 3 | GFTLNSYGIS | VIYSDYRRTFYGDSVK | GRAQVTFDS |
| 260 nM | 1 of 3 | GFTLNSYGWS | VIYSGGRRTFYGDWVK | GRAAGTFDS |
| 420 nM | 1 of 3 | GFTLASYGIS | VIYSDKRRTFYGDSFK | GRAAGTFDS |
| nd | 0 of 3 | MFTLNSYGIS | VIYSDGRETFYGDWVK | GRAAGTFDS |
| 10 µM | 2 of 3 | GCTLRSYGPS | VIYSDGRRTFYGDSVK | GRAAGTFDS |
| 9.4 µM | 1 of 3 | GFTLNSCGGS | VIYSDGRFTFYGDSVK | GRAAGTFDS |
| 41 nM | 3 of 3 | SKTLNSYGIS | VIYSDGRRTFYGDSVK | GRAAGTFDS |
| 8.7 µM | 2 of 3 | GFTLNSYGIS | VIYSDGRRTFYGESVG | GRAAGTFES |
| nd | 0 of 3 | GFTLNSYGYR | VIYMDGRRTFYGDSVK | GRAAGTFDS |
| 16 µM | 1 of 3 | GFTLNSYGIS | VIYSDGRRTFYGDSHR | GRAAGTFDS |
| nd | 0 of 3 | GFTLNSLGIS | VIYSDGRCTFYGDSVK | GRADGTFDS |
| nd | 0 of 3 | MFTLNSYGIS | VIYSDGRRTFYGDCVK | DRAAGTFDS |
| nd | 0 of 3 | GFTLNSYGIS | VIYSDGRRTFYGDSVK | WIAAGTFDS |
| 7.5 µM | 2 of 3 | GFTLNHYGIS | YIYSDGRRTFYGDSVK | GRAAGQFDS |
| nd | 0 of 3 | GFTLNSYGIS | VIYSDGRRTFFGQSVK | GRAAGTFDS |
| 3.1 µM | 2 of 3 | GFTCNSHGIS | SIYSDGRRTFYGDSVK | GRAAGTFDS |
| 6.2 µM | 2 of 3 | GFTLNSYGIS | VIYSDGRRLFYFDSVK | GRKAGTFDS |
| nd | 0 of 3 | GFTWNSYGIS | QIYSDGRRTFYGDSVK | GRVAGTFDS |
| nd | 0 of 3 | GFNLNSYGIK | VIYSDERRTFYGDSVK | GRAAGTFDS |

Picked from the list: the 2 lowest averages where every replicate gave a value.

CDR-H1	CDR-H2	CDR-H3	Kd (apparent)	seen in
GFTLNSYGIS	VIYSDGRRTFYQDSVK	FRAAGTFDS	6.6 nM	3 of 3
SKTLNSYGIS	VIYSDGRRTFYGDSVK	GRAAGTFDS	41 nM	3 of 3

Parent in this assay: reference entry 4.4 nM, copy in this library 13 µM (one replicate of three).
Empty control strains, which show no peptide, gave a signal in 15% of pairings with library AAYL49; the median was 11 µM and 95% of these signals were weaker than 680 nM. No background was subtracted.

The measurements come from Engelhart et al. 2022 (doi:10.1038/s41597-022-01779-4) through the FLAb antibody collection.